Source: PubChem BioAssay (several laboratories)
MC4R barr agon = agonists of human melanocortin 4 receptor (MC4R) beta-arrestin | AID 540308 | P32245 | activation, % at 8.9 µM | U2OS MC4R beta-arrestin complementation, luminescence; percent of melanotan II response, DMSO zero | 0.98% of 360,000 active;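 active = activation above a per-plate cutoff, the mean activation of sample wells on that plate plus 3 SD, cut at about 8% in these data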
Yeast UUG start = alters start codon recognition fidelity in yeast | S. cerevisiae UUG-firefly luciferase reporter, luminescence/redox ratio | activity score, % at 18.7 µM | 350,000 compounds, 0.13% hits | AID 602363;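 active = replicate mean at a twofold rise or more, about +100% in these data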;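 note: firefly luciferase made from a UUG start codon reports start codon fidelity; reporter light over untreated wells divided by growth signal over untreated wells; some hits fall short of that in this replicate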
ALR inh = blocks human ALR sulfhydryl oxidase activity | inhibition, % (no concentration beside the values) | 3.8% of 290,000 active | purified ALR, DTT oxidation, H2O2 HRP-luminol luminescence | AID 485317 | P55789;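 active = mean and each replicate at 75% or more; inconclusive = only one of the two met; inactive = neither met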;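 also: stock transfer was 7.5 nL into about 7.5 µL; 0% = neutral wells and 100% = wells with inactivated enzyme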
NALP1 yeast inh = inhibitors of NALP1 inflammasome in yeast | S. cerevisiae NALP1/ASC/caspase-1 growth, X-gal OD620, 72 h | inhibition, % at 10 µM | 0.61% of 280,000 active | AID 2071; in the data active = inhibition mostly above about 24%, no sharp cut-off; inactive = mostly below about 32%
MC4R antag cAMP = antagonists of human melanocortin 4 receptor (MC4R); P32245; MC4R-expressing cells, MTII-stimulated cAMP, LANCE TR-FRET; inhibition, % at 6.5 µM; 0.48% of 360,000 active; AID 540295;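 active = inhibition above its plate's cutoff, the mean of tested wells on that plate plus 3 SD, cut at about 29% in these data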
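material = U2OS cells stably expressing human melanocortin 4 receptor (MC4R) | also added = Melanotan II challenge | dosing = single nominal compound dose of 6.5 µM | detection = TR-FRET with Eu-cAMP and labeled anti-cAMP, 671 nm | replication = singlicate | timing = compound 30 min, challenge 1 h, detection 1 h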
HDAC3 inh = inhibitors of human histone deacetylase 3 | O15379 | 0.15% of 320,000 active | inhibition, % at 8.3 µM | AID 2718 | recombinant HDAC3, fluorogenic peptide/trypsin coupled, fluorescence; in the data active = inhibition above about 26%, passing the limit was not always enough; inconclusive = no clear call, values can overlap the other calls
Hits are given with their value. Compounds with a hit are over-represented: about 4.2% of the library has one in this group of screens.

Screening COc1cc2c(cc1O)CC[C@@H]1[C@@H]2CC[C@]2(C)[C@@H](O)CC[C@@H]12 returned MC4R barr agon inactive, Yeast UUG start inactive, ALR inh 99, NALP1 yeast inh inactive, MC4R antag cAMP inactive and HDAC3 inh inactive.
`O=C(C[C@H]1CC[C@@H](NC(=O)C2CC2)[C@@H](CO)O1)NCC1CC1` gave Yeast UUG start inactive.
For COc1ccc(NC(=O)N(C)C[C@@H]2Oc3ncc(C#C[C@@H](C)O)cc3C(=O)N([C@@H](C)CO)C[C@H]2C)cc1 the results were Yeast UUG start inactive.
For CCCC#Cc1ccc2c(c1)O[C@@H](CN(C)C(=O)CC1CC1)[C@H](C)CN([C@H](C)CO)S2(=O)=O the results were Yeast UUG start inactive.
O=C1C=CC(=O)N1c1ccc2c(c1)C(NC(=O)C(F)(F)F)c1ccccc1-2 (stereo not given) was read as MC4R barr agon inactive and MC4R antag cAMP 71.
`CC(C)C#Cc1cnc2c(c1)C(=O)N([C@H](C)CO)C[C@H](C)[C@H](CN(C)Cc1cccc(F)c1)O2` gave Yeast UUG start inactive.
`Cc1ccc(N=C2C(=S)N(c3ccc(C)cc3)C(=N)N2/N=C/c2ccc(Cl)cc2)cc1` gave MC4R barr agon inactive, Yeast UUG start inactive, ALR inh 96, NALP1 yeast inh inactive, MC4R antag cAMP inactive and HDAC3 inh inactive.
`CCOc1ccc(C(=O)Nc2cc(-c3nc4ccccc4[nH]3)ccc2C)cc1[N+](=O)[O-]` gave MC4R barr agon inactive, Yeast UUG start inactive, ALR inh inactive, NALP1 yeast inh inactive, MC4R antag cAMP inactive and HDAC3 inh inactive.
Screening CCOc1ccc(C(=O)Nc2cc(-c3nc4ccccc4[nH]3)ccc2Cl)cc1[N+](=O)[O-] returned MC4R barr agon inactive, ALR inh inactive, NALP1 yeast inh 56, MC4R antag cAMP inactive and HDAC3 inh inconclusive.
`COc1cc([N+](=O)[O-])cc(CN2CCCCC2)c1O` gave MC4R barr agon inactive, ALR inh 98, NALP1 yeast inh inactive, MC4R antag cAMP inactive and HDAC3 inh inactive.
`CC(C)COP(=O)(c1ccc(N(C)C)cc1)C(O)c1ccc(N(C)C)cc1` (stereo not given) gave MC4R barr agon inactive, Yeast UUG start inactive, ALR inh 98, NALP1 yeast inh inactive, MC4R antag cAMP inactive and HDAC3 inh inactive.
For CC(C)COP(=O)(OCC(C)C)C(O)c1ccc(N(C)C)cc1 (stereo not given) the results were MC4R barr agon inactive, Yeast UUG start inactive, ALR inh 92, NALP1 yeast inh inactive, MC4R antag cAMP inactive and HDAC3 inh inactive.
`CC(C)OP(=O)(c1ccc(N(C)C)cc1)C(O)c1c(Cl)cccc1Cl` (stereo not given) gave MC4R barr agon inactive, Yeast UUG start inactive, ALR inh inactive, NALP1 yeast inh inactive, MC4R antag cAMP inactive and HDAC3 inh inactive.
For CC(C)COP(=O)(c1ccc(N(C)C)cc1)C(O)c1ccccc1 (stereo not given) the results were MC4R barr agon inactive, ALR inh inactive, NALP1 yeast inh inactive, MC4R antag cAMP inactive and HDAC3 inh inactive.
Screening CC(C)OP(=O)(c1ccc(N(C)C)cc1)C(O)c1ccc(N(C)C)cc1 (stereo not given) returned MC4R barr agon inactive, Yeast UUG start inactive, ALR inh 98, NALP1 yeast inh inactive, MC4R antag cAMP inactive and HDAC3 inh inactive.
For O=C(N[C@@H]1CC[C@@H](CCn2cc(-c3cccnc3)nn2)O[C@@H]1CO)c1ccccc1F the results were Yeast UUG start inactive.
For COc1ccc(OCC(=O)NNc2c3ccccc3nc3ccccc23)cc1 the results were MC4R barr agon inactive, Yeast UUG start inactive, ALR inh 100, NALP1 yeast inh inactive, MC4R antag cAMP inactive and HDAC3 inh inactive.
`O=C(COc1ccccc1)NNc1c2ccccc2nc2ccccc12` gave MC4R barr agon inactive, Yeast UUG start inactive, ALR inh 98, NALP1 yeast inh inactive, MC4R antag cAMP inactive and HDAC3 inh inactive.
`Cc1noc(C)c1NC(=O)Nc1ccc2c(c1)C(=O)N([C@H](C)CO)C[C@@H](C)[C@@H](CN(C)C(=O)Nc1ccc(F)cc1)O2` gave Yeast UUG start inactive.
`Cc1noc2ncnc(Sc3ccc(Cl)cc3)c12` gave MC4R barr agon inactive, Yeast UUG start inactive, ALR inh 80, NALP1 yeast inh inactive, MC4R antag cAMP inactive and HDAC3 inh inactive.
`Cc1ccc(CSc2ncnc3onc(C)c23)cc1` gave MC4R barr agon inactive, ALR inh inactive, NALP1 yeast inh inactive, MC4R antag cAMP inactive and HDAC3 inh inactive.
Screening Cc1ccc(Sc2ncnc3onc(C)c23)cc1 returned MC4R barr agon inactive, Yeast UUG start inactive, ALR inh 99, NALP1 yeast inh inactive, MC4R antag cAMP inactive and HDAC3 inh inactive.
C[C@@H]1CN([C@H](C)CO)C(=O)c2cccc(NC(=O)C3CC3)c2O[C@@H]1CN(C)CC1CCCCC1 was read as Yeast UUG start inactive.
Screening Cc1nn(Cc2ccc(Cl)cc2)c(C)c1NC(=O)CSc1nc2c(c(C(F)(F)F)n1)CCc1ccccc1-2 returned MC4R barr agon inactive, Yeast UUG start inactive, ALR inh 98, NALP1 yeast inh inactive, MC4R antag cAMP inactive and HDAC3 inh inactive.
`CC(C)(C)c1ccc(C(=O)Oc2ccccc2CCC(=O)O)cc1` gave MC4R barr agon inactive, Yeast UUG start inactive, ALR inh 91, NALP1 yeast inh inactive, MC4R antag cAMP inactive and HDAC3 inh inactive.
Screening N/C(=N\O)c1ccc(N2CCN(c3ncccc3C(F)(F)F)CC2)nc1 returned MC4R barr agon inactive, ALR inh 91, NALP1 yeast inh inactive, MC4R antag cAMP inactive and HDAC3 inh inconclusive.
Screening O=C(Nc1ccc(N2CCN(c3ccc(C(F)(F)F)cn3)CC2)nc1)c1cccs1 returned MC4R barr agon inactive, ALR inh inactive, NALP1 yeast inh inactive, MC4R antag cAMP inactive and HDAC3 inh inactive.
`O=C(Nc1ccc(N2CCN(c3ncccc3C(F)(F)F)CC2)nc1)c1cccs1` gave MC4R barr agon 9.6, ALR inh inactive, NALP1 yeast inh inactive, MC4R antag cAMP inactive and HDAC3 inh inactive.
CC(C)(C)C(=O)N1CCN(c2ncccc2C(F)(F)F)CC1 was read as MC4R barr agon inactive, Yeast UUG start inactive, ALR inh inactive, NALP1 yeast inh inactive, MC4R antag cAMP inactive and HDAC3 inh inactive.
For C[C@@H]1CCCCO[C@@H](CN(C)S(=O)(=O)c2ccc(Cl)cc2)[C@H](C)CN([C@H](C)CO)C(=O)c2cc(NS(=O)(=O)c3cccs3)ccc2O1 the results were Yeast UUG start inactive.
For CN(C(=O)CSc1nc(-c2ccc(C(C)(C)C)cc2)c(C#N)c(=O)[nH]1)C1CCCCC1 the results were MC4R barr agon inactive, Yeast UUG start inactive, ALR inh 93, NALP1 yeast inh inactive, MC4R antag cAMP inactive and HDAC3 inh inactive.
Cc1ccccc1-c1cnc2c(c1)C(=O)N([C@@H](C)CO)C[C@H](C)[C@H](CN(C)C(=O)c1ccccc1)O2 was read as Yeast UUG start inactive.
